Sequences of proteins named here, by UniProt entry; tags and fusion partners are left off. Residues count along the entry.
UniProt P43220, 24-463, species assumed: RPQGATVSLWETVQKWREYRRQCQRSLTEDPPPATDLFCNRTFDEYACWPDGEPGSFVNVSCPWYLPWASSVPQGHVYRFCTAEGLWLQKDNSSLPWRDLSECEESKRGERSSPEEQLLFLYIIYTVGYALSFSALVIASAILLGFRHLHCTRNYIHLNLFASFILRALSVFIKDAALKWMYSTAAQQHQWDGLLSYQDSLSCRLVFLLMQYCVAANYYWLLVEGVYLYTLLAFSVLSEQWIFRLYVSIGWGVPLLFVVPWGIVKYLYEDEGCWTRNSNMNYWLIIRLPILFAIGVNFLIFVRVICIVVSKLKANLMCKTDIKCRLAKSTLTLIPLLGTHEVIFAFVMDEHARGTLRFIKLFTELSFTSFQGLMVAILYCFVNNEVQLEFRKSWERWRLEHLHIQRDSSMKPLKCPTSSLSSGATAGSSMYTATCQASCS
UniProt P47871, 26-477: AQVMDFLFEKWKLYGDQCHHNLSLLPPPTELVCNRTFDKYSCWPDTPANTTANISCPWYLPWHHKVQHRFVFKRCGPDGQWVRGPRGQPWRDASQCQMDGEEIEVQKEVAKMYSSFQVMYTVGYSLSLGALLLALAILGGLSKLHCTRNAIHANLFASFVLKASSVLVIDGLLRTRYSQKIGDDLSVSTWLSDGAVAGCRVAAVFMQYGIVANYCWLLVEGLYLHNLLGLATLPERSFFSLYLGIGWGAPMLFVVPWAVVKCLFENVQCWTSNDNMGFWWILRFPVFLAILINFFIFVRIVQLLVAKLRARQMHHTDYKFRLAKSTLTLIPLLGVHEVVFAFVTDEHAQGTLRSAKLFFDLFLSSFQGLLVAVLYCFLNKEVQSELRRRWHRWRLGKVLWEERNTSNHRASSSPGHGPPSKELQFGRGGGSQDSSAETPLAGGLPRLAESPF

According to patent US8969294B2 (Istituto di Recerche di Biologia Molecolare P. Angeletti …, priority 2008, dated 2015):

Columns and labels:
[1] = biological target: GLP-1 receptor (Homo sapiens, UniProt P43220); assay: Functional assay, cAMP synthesis: luciferase reporter in HEK293 cells co-transfected with GLP-1 receptor
[2] = biological target: glucagon receptor (Homo sapiens, UniProt P47871); assay: Functional assay, cAMP synthesis: luciferase reporter in HEK293 cells co-transfected with glucagon receptor

Compound | EC50 [1] [nM] | EC50 [2] [nM]
CCCCCCCCCCCCCCCC(=O)N[C@@H](CCC(=O)N[C@@H](CCC(=O)NCCCC[C@H](NC(=O)[C@H](CC(=O)O)NC(=O)[C@H](CO)NC(=O)[C@@H](NC(=O)[C@H](Cc1ccccc1)NC(=O)[C@@H](NC(=O)CNC(=O)[C@H](CCC(N)=O)NC(=O)[C@H](CO)NC(=O)C(C)(C)c1c[nH]cn1)[C@@H](C)O)[C@@H](C)O)C(=O)N[C@@H](CO)C(=O)N[C@@H](CCCCN)C(=O)N[C@@H](Cc1ccc(O)cc1)C(=O)N[C@@H](CC(C)C)C(=O)N[C@@H](CC(=O)O)C(=O)N[C@H]1CCC(=O)NCCCC[C@@H](C(=O)N[C@@H](CC(=O)O)C(=O)N[C@@H](Cc2ccccc2)C(=O)N[C@H](C(=O)N[C@@H](CCC(N)=O)C(=O)N[C@@H](Cc2c[nH]c3ccccc23)C(=O)N[C@@H](CC(C)C)C(=O)N[C@@H](CCSC)C(=O)N[C@@H](CC(N)=O)C(=O)N[C@H](C(N)=O)[C@@H](C)O)C(C)C)NC(=O)[C@H](C)NC(=O)[C@H](CCCNC(=N)N)NC(=O)[C@H](CCCNC(=N)N)NC1=O)C(=O)O)C(=O)O [compound 652] | 0.004 | 
CCCCCCCCCCCCCCCC(=O)N[C@@H](CCC(=O)NCCCC[C@H](NC(=O)[C@H](CC(=O)O)NC(=O)[C@H](CO)NC(=O)[C@@H](NC(=O)[C@H](Cc1ccccc1)NC(=O)[C@@H](NC(=O)CNC(=O)[C@H](CCC(N)=O)NC(=O)[C@H](CO)NC(=O)C(C)(C)c1c[nH]cn1)[C@@H](C)O)[C@@H](C)O)C(=O)N[C@@H](CO)C(=O)N[C@@H](CCCCN)C(=O)N[C@@H](Cc1ccc(O)cc1)C(=O)N[C@@H](CC(C)C)C(=O)N[C@@H](CC(=O)O)C(=O)N[C@H]1CCC(=O)NCCCC[C@@H](C(=O)N[C@@H](CC(=O)O)C(=O)N[C@@H](Cc2ccccc2)C(=O)N[C@H](C(=O)N[C@@H](CCC(N)=O)C(=O)N[C@@H](Cc2c[nH]c3ccccc23)C(=O)N[C@@H](CC(C)C)C(=O)N[C@@H](CCSC)C(=O)N[C@@H](CC(N)=O)C(=O)N[C@H](C(N)=O)[C@@H](C)O)C(C)C)NC(=O)[C@H](C)NC(=O)[C@H](CCCNC(=N)N)NC(=O)[C@H](CCCNC(=N)N)NC1=O)C(=O)O [compound 651] | 0.006 | 0.019
CCCCCCCCCCCCCCCC(=O)NCCCC[C@H](NC(=O)[C@H](CC(=O)O)NC(=O)[C@H](CO)NC(=O)[C@@H](NC(=O)[C@H](Cc1ccccc1)NC(=O)[C@@H](NC(=O)CNC(=O)[C@H](CCC(N)=O)NC(=O)[C@H](CO)NC(=O)C(C)(C)c1c[nH]cn1)[C@@H](C)O)[C@@H](C)O)C(=O)N[C@@H](CO)C(=O)N[C@@H](CCCCN)C(=O)N[C@@H](Cc1ccc(O)cc1)C(=O)N[C@@H](CC(C)C)C(=O)N[C@@H](CC(=O)O)C(=O)N[C@H]1CCC(=O)NCCCC[C@@H](C(=O)N[C@@H](CC(=O)O)C(=O)N[C@@H](Cc2ccccc2)C(=O)N[C@H](C(=O)N[C@@H](CCC(N)=O)C(=O)N[C@@H](Cc2c[nH]c3ccccc23)C(=O)N[C@@H](CC(C)C)C(=O)N[C@@H](CCSC)C(=O)N[C@@H](CC(N)=O)C(=O)N[C@H](C(N)=O)[C@@H](C)O)C(C)C)NC(=O)[C@H](C)NC(=O)[C@H](CCCNC(=N)N)NC(=O)[C@H](CCCNC(=N)N)NC1=O [DMIA1, K10(C16), [E16/K20]-Gluc Amide] | 0.015 | 
